scFv variants of Ab-14 (light chain) against a SARS-CoV-2 spike peptide

Data: MIT Lincoln Laboratory AlphaSeq set, Li et al. 2023, doi:10.1038/s41467-023-39022-2, as distributed in FLAb.

The target is the same throughout: PDVDLGDISGINAS, from the HR2 region of SARS-CoV-2 spike.

Ab-14 is the parent antibody, in scFv form: VH, then a (GGGGS)3 linker, then VL. The heavy chain is unchanged in all variants.
VH: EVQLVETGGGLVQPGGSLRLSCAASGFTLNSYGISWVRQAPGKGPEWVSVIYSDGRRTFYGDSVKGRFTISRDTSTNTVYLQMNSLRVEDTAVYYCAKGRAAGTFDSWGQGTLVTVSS
VL: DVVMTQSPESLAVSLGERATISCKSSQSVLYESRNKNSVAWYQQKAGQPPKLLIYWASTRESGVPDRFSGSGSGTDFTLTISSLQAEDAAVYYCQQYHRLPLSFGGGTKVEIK

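Phage display of a naive human antibody library on the peptide gave the parent. Designed CDR sequences, proposed from the first random library and measured here. Their group label is 14L_En_HC (En: ensemble of fine-tuned language models; HC: hill climbing; a sequence that several methods proposed may carry one label only). The scFvs were displayed on barcoded MATa yeast, the peptide on MATalpha yeast. After mating in shaken culture at 30 °C for 16 h, diploids were selected and their barcode pairs sequenced. A regression on co-assayed BCL2-family reference pairs converts the normalised counts of each replicate to an apparent Kd. Mating was done six times.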

Variants are written as CDR1, CDR2 and CDR3 of the light chain (limits as in the source). Parent: KSSQSVLYESRNKNSVA, WASTRES, QQYHRLPLS. The read-out is the apparent dissociation constant on a log10 scale (nM): the lower, the stronger. An entry "nd" has no value in the source: the pair was not observed among the diploids in that replicate. This suggests poor binding but is not conclusive. Nonspecific signal, from three strains lacking the peptide, appeared in 4% of pairings of all light chain designs, centred on 2.64 (5% of these signals below 1.59); values are not corrected for it. For each scFv, signals with the empty controls are counted beside the result. The range of this assay differs from that of the first round, and the authors advise against merging the two. The authors averaged sequences with at least three values out of six and counted those with two or fewer as poor binders.

For KLSMSYRWESENKNSIA | ELVTRMS | QQYHRLPLS, the assay gave nd, nd, nd, nd, nd, nd (controls 0 of 18).
For KLPQSTMQNSVSKNSVA | ELSTRGS | QQYHRLPLS, the assay gave nd, nd, nd, nd, 3.32, nd (controls 0 of 18).
For IFSQSVLMGNLTKNSVA | QASQRFS | QQYHRLPLI, the assay gave 1.67, 2.67, 2.18, 2.10, 2.12, 1.62 (controls 2 of 18).
For HISQSFMTESVWRNNIA | HQSTREQ | QQYDRLPFS, the assay gave 0.51, 0.29, 0.39, 0.53, 0.42, 0.60 (controls 3 of 18).
For KLQQVTGYEMYVRNSVA | QMSTRAE | QDYNRLPLS, the assay gave 0.67, 0.64, 0.42, 0.51, 0.72, 0.61 (controls 1 of 18).
For KLRQVTGWESYNKNSVA | QTSTRAS | QDYHRLPLS, the assay gave 0.97, 1.14, 1.12, 1.17, 1.05, 1.16 (controls 1 of 18).
For TISQVTGLLQHNSNSVA | DMNTRGS | QQYDRLPLS, the assay gave 0.47, 0.43, 0.43, 0.35, 0.27, 0.54 (controls 5 of 18).
For KLRMSTHIESFNKNNVA | EMTTRES | QSYDRLPLS, the assay gave 1.28, 1.30, 0.92, 1.33, 1.73, 1.87 (controls 1 of 18).
For TLTQVTMVESYNKNSVA | QAETRLE | QDYHRLPLS, the assay gave nd, nd, nd, 3.05, nd, 2.88 (controls 0 of 18).
For KIGGVTNGISRNKNSVA | EQSTRES | QQYDRLPLS, the assay gave 1.65, 1.07, 1.56, 1.49, 2.23, 1.09 (controls 3 of 18).
For QLGAVQDMTSKNKNSVA | EMSTREN | QQYHRLPLS, the assay gave -0.01, -0.09, -0.06, -0.19, -0.09, 0.03 (controls 4 of 18).
For HISYSMAHLSKNKNSVA | NQQTREE | QQYHRLPLS, the assay gave 0.51, 0.39, 0.40, 0.52, 0.57, 0.71 (controls 2 of 18).
For KLSMSVNFFGHAINSVA | EMETREN | QQYDRLPLS, the assay gave 2.34, 1.06, 1.59, 1.66, 1.15, 1.69 (controls 1 of 18).
For MVGQGLMGESRAKNSIA | QASLRFD | QQYHRLPFI, the assay gave 1.95, 1.34, 0.85, 1.36, 0.92, 1.17 (controls 1 of 18).
For QLYAVNDLTSKQSNNVA | EQTTREN | QQYHRLPLS, the assay gave 0.65, 1.04, 0.58, 0.90, 0.42, 0.94 (controls 0 of 18).
For KLSISHQVESIHKSNVA | EMVTRES | QQYDRLPLS, the assay gave 0.57, 0.37, 0.76, 0.72, 0.65, 0.83 (controls 1 of 18).
For KLAGVTEYEMRNKNSVA | QMTTRES | QQYTRLPLS, the assay gave 0.02, -0.03, -0.18, -0.30, -0.12, -0.07 (controls 1 of 18).
For KLGQTVGYESRNKSRVA | DNSTRES | QQYDRLPLS, the assay gave 3.37, nd, 2.67, 2.64, 3.02, 4.06 (controls 0 of 18).
For KISQMVTYESTWHNAIA | QTSEREA | QQYHRLPFS, the assay gave 0.63, 0.24, 0.23, 0.39, 0.40, 0.75 (controls 1 of 18).
For HISMMVGTKGYNKNSVA | NAETRYD | QQYHRLPLS, the assay gave nd, 2.02, nd, 1.99, 0.77, 1.31 (controls 1 of 18).
For TISTSMRYESSLKNAIA | NAQTRES | QQYHRLPLI, the assay gave 1.19, 0.81, 0.63, 0.85, 1.03, 0.91 (controls 2 of 18).
For TIGQMFNGESRNRNSVA | QASTRES | QSYDRLPLS, the assay gave nd, 3.52, 0.82, 1.35, 0.87, 1.44 (controls 0 of 18).
For KLSQVTHSESRSKNSIA | EMVTREV | QQYDRLPLS, the assay gave 0.71, 0.75, 0.61, 0.66, 0.45, 1.23 (controls 1 of 18).
For KLTQLTHIESFNKNNVA | EMTTRES | QSYDRLPLS, the assay gave 2.86, 2.01, 1.66, 2.01, 2.06, 1.44 (controls 0 of 18).
For HISYSVGMTSRNKNSVA | ENSTRED | QQYDRLPLS, the assay gave 2.32, nd, 1.57, 2.26, 1.84, 3.24 (controls 1 of 18).
For MISDMGLHDSRVQDSVA | NNSTREA | QQYDRLPLS, the assay gave 2.66, 2.05, 2.54, 2.54, 2.08, 2.50 (controls 2 of 18).
For KLYQATAMTSRMKNNVA | DLNERER | QQYFRLPLS, the assay gave 0.59, 0.21, 0.27, -0.49, 0.54, 1.05 (controls 2 of 18).
For KLYMSTGYESRNKDNIA | DNSTRGR | QQYHRLPLS, the assay gave 0.82, 0.28, nd, 1.19, 0.63, 1.00 (controls 0 of 18).
For QLGAVQDMTSKNKNSVA | EQSTREN | QQYHRLPLS, the assay gave 0.54, -0.19, -0.79, -0.46, -0.37, -0.02 (controls 0 of 18).
For NVGQLMDSGTRNRNNVA | HQSTRED | QHYHRLPLS, the assay gave nd, nd, nd, 0.11, -0.37, 0.18 (controls 0 of 18).
For TIGQSTHETSRNKNSVA | HASTRED | QQYDRLPLS, the assay gave 0.21, 0.05, 0.11, 0.11, 0.19, 0.14 (controls 1 of 18).
For HLSMSVDLESVHKNSIA | DLMTRES | QQYHRLPLS, the assay gave 0.12, -0.18, 0.19, -0.37, -0.29, -0.04 (controls 1 of 18).
For KLSMSMLLESFHKNSVA | ENSTREE | QHYHRLPLS, the assay gave nd, 3.31, 2.53, 3.05, 2.07, 2.82 (controls 0 of 18).
For TIGQVMHYESRNKNSVA | QTSTREE | QDYDRLPLS, the assay gave nd, 2.32, 2.45, 2.26, 2.81, 3.82 (controls 1 of 18).
For IISQVDAYLSRNTNSIA | DQSTRGS | QQYDRLPLS, the assay gave 1.37, 1.31, 1.21, 1.91, 1.60, 1.00 (controls 0 of 18).
For KLSQVTNSEHKVSNSIA | EMVTREK | QQYDRLPLS, the assay gave nd, nd, 2.19, nd, nd, nd (controls 0 of 18).
For KLSQSVLFWGHAINSVA | EMVTREN | QQYDRLPLS, the assay gave 1.38, 0.93, 1.43, 1.39, 1.13, 1.46 (controls 1 of 18).

Excerpt, the final 3 entries:

With IISQVDAYLSRNTNSIA | DQSTRGS | QQYDRLPLS the result was 1.37, 1.31, 1.21, 1.91, 1.60, 1.00 (controls 0 of 18).
With KLSQVTNSEHKVSNSIA | EMVTREK | QQYDRLPLS the result was nd, nd, 2.19, nd, nd, nd (controls 0 of 18).
With KLSQSVLFWGHAINSVA | EMVTREN | QQYDRLPLS the result was 1.38, 0.93, 1.43, 1.39, 1.13, 1.46 (controls 1 of 18).